Experimental data from patent US20260201352.

Biological target: T1, nanopore protein CsgG-Eco-(Y51A/F56Q/R97W/R192D-StrepII (C)), P0AEA2
T1 chain: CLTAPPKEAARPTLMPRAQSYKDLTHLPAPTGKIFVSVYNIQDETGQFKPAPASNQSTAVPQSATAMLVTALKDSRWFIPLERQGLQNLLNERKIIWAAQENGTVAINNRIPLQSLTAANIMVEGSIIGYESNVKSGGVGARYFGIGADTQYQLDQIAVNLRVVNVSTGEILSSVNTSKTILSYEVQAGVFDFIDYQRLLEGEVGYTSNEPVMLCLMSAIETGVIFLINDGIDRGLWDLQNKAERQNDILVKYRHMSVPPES

B1: BCH105-3 (protein)
chain: MKHDLSSATEEQRYIFTDFIKQAQLALKGDSDYEVFAIQGFAGSGKTWLSALIIDELLELGMKVAVTSPTHKAVRVSLNMLKNNGIDTNSPLMYPGTIHHFLNLKLDHGFADDGTADNCTTKAKLVVNKFNEALEYVDVLIVDEASMVSGELYDHALKTLGDRAKIILFIGDSYQLLPVDDEDSSIFLKDDIFHYKLTKVVRQAEDNIIIAKSQELIKAMDQKTYYPSVNDYFVNITEDTEGIKLLKSNVELFELYFSDFKDKMTGAYTNKVVNQFNEYIRYTLYQETKFIADKDELVFQETYTDSKGNIIVSNGEIIEVATAKLTTDIDKFKIWKIVSKKNELGEAVRFNVLDPSSYNEFNDLLDKYCADAKIAKGYDRSKAWKKYFKLKEKYAKVRYNFSSTIHKLQGSTYQNMYFDMRGLDYFYRMNRDNVLRLVYVGITRASDQVFILQD
Speed (nt/s): 245 nt/s
